These results are taken from ChEMBL document CHEMBL1126381, “2-carboxy indolines and indoles as potential glycine/NMDA antagonists: effect of five-membered ring conformation on affinity” (Bioorg Med Chem Lett, 1992).

Each structure is given as a SMILES string.

The target in the experiment is Glutamate receptor ionotropic, NMDA 1 (Rattus norvegicus, UniProt P35439). The experiment is described as follows: Inhibition of [3H]L-689,560 binding to Glycine site of NMDA receptor of rat cortical membranes. It counts as cell membranes, Membrane.

A word on the IC50: it is the concentration that inhibits the measured activity by half.

Molecule `COC(=O)Cc1c(C(=O)O)[nH]c2cc(Cl)ccc12` gave an IC50 of 1780 nM. This counts as single-digit micromolar.
